Data published in publication PMC7656562 (Journal of medicinal chemistry, 2019).
Like-named read-outs stand apart in the source and are kept apart here.

Columns and labels:
[1] = mouse, 0.3 mg/kg PO
[2] = rat, 1 mg/kg PO

O=C(Nc1ccc(OC(F)F)nc1)NC1CCN(c2ncnc3c2nc(-c2ccccc2Cl)n3-c2ccc(Cl)cc2)CC1 [Compound 38, 3-{1-[8-(2-Chlorophenyl)-9-(4-chlorophenyl)-9H-purin-6-yl]-piperidin-4-yl}-1-[6-(difluoromethoxy)pyridin-3-yl]urea]
time of plasma max. conc. [1]: 2 h
time of plasma max. conc. [2]: 2 h
